Compound activity from PubChem.
PglD inh: C. jejuni PglD acetyltransferase inhibitors, primary screen, biochemical, DTNB colorimetric, single point | UDP-N-acetylbacillosamine N-acetyltransferase PglD (Campylobacter jejuni) | purified PglD enzyme, DTNB colorimetric CoA detection | inhibition, % at 12.5 µM | 360,000 compounds, 0.098% hits | AID 602405, 2012; in the data active = inhibition above about 16%, passing the limit was not always enough; inconclusive = no clear call, values can overlap the other calls
EWS-Fli block: EWS/Fli-driven NR0B1 reporter inhibitors, primary screen, A673 cells, NR0B1 luciferase, luminescence, MLPCN library; 350,000 compounds, 0.67% hits; viability-normalised; inhibition, % at 12.6 µM;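 active = mean inhibition of at least 50% after viability correction, with every replicate also passing that limit; inconclusive = mean reaches 50% but only one of two replicates passes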;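 note: firefly luciferase signal divided by Alamar Blue viability fluorescence both relative to DMSO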
miR-122 sensor: miR-122 Renilla sensor signal increase in Huh7, primary screen, miR-122 inhibitor project, cell-based, single point, plate reader; AID 602342, 2012; activation (reporter increase), % at 12.5 µM; Huh7 miR-122 Renilla luciferase sensor, 48 h; neutral wells = 0, positive control = 100; 340,000 compounds, 0.3% hits;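 active = mean replicate activation score at least 90 and every replicate individually at or above 90; inconclusive = only one of the two criteria met; inactive = neither criterion met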;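 note: higher luciferase means less miR-122 activity so hits act as miR-122 inhibitors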
UUG fidelity: modulators of start codon recognition fidelity in yeast; AID 602363; activity score, % at 18.7 µM; S. cerevisiae UUG-firefly luciferase reporter, luminescence/redox ratio; 0.13% of 350,000 active;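 active = replicate mean at a twofold rise or more, about +100% in these data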;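 note: firefly luciferase made from a UUG start codon reports start codon fidelity; reporter light over untreated wells divided by growth signal over untreated wells; some hits fall short of that in this replicate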
F508del corr: F508del CFTR correction, initial screen, CFBE line, single point. activity (quench increase), % at 7.58 µM. CFBE cells, YFP halide quenching; stimulated with forskolin plus potentiator P3; % fluorescence drop versus neutral controls. 350,000 compounds, 0.36% hits. AID 720511, 2013;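 active = mean added fluorescence quench of at least 8% versus neutral control, with both replicates also reaching 8%; inconclusive = only one of the mean or replicate conditions met; inactive = mean below 8% and not both replicates reaching 8%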;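 note: cells transiently co-express mutant CFTR-F508del with the halide-sensitive YFP; corrector assay measuring rescue of mutant channel to the surface after 24 h compound exposure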
LGR2 antag: inhibitors of bursicon-induced LGR2 CRE-luciferase signal, primary screen, cell-based, HEK293, CRE-luciferase reporter, bursicon stimulation. 380,000 compounds, 0.35% hits. inhibition, % at 9.99 µM. Drosophila bursicon receptor LGR2 (rickets). bursicon-stimulated, 4 h;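 active = drop in luminescence signal, shown as inhibition above about 50% in the replicate tests, limit read from the data, passing the limit was not always enough; inconclusive = probably only some replicates passing the limit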;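 note: agonist challenge used bursicon conditioned medium at about half maximal strength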
Of the large screens only hits and unclear results are named; the others gave an inactive call. Shown are actives, neighbours in structure and some others; about 1.3% of the full set was active somewhere.

COc1cc(OC)c2c(-c3cccc(-c4ccc(OC)c(OC)c4)c3)cc(=O)oc2c1	EWS-Fli block 53, F508del corr 9.2
COc1cccc(CNS(=O)(=O)c2c(C)nc3sccn3c2=O)c1	none
O=C1NC(=Nc2cccnc2)S/C1=C/c1ccc(F)cc1	F508del corr 14
C[C@H]1CN([C@@H](C)CO)S(=O)(=O)c2ccc(C#Cc3cccc(F)c3)cc2O[C@H]1CN(C)C(=O)NC1CCCCC1	F508del corr 12
C[C@@H]1CN([C@H](C)CO)S(=O)(=O)c2ccc(C#Cc3cccc(F)c3)cc2O[C@@H]1CN(C)C(=O)NC1CCCCC1	F508del corr 10
C[C@H]1CN([C@@H](C)CO)S(=O)(=O)c2ccc(C#Cc3ccc(F)cc3)cc2O[C@H]1CN(C)C(=O)NC1CCCCC1	F508del corr 10
C[C@H](CO)N1C[C@H](C)[C@H](CN(C)C(=O)NC2CCCCC2)Oc2cc(C#Cc3cccc(F)c3)ccc2S1(=O)=O	F508del corr 8.4
CN1C(=O)c2cc(NC(=O)Nc3ccccc3)ccc2OC[C@@H]2O[C@@H](CC(=O)NC3CCC3)CC[C@@H]21	none
c1ccc(CCc2cn(C[C@H]3CC[C@@H]([C@@H]4CC[C@H](Cn5cc(CCc6ccccc6)nn5)O4)O3)nn2)cc1	none
Cn1c(SCc2ccc3c(c2)OCO3)nnc1-c1ccccc1	none (no result: EWS-Fli block, F508del corr, LGR2 antag)
CC(C)NC(=O)Nc1cccc2c1O[C@@H](CN(C)Cc1ccccc1)[C@H](C)CN([C@@H](C)CO)C2=O	none
Oc1ccc(C[C@H]2CN([C@@H](Cc3cccc(O)c3)CN3CCC[C@@H]3CN3C(=S)NC[C@@H]3Cc3ccccc3)C(=S)N2CC2CCCCC2)cc1	none
CCC1(O)C(=O)OCc2c1cc1n(c2=O)Cc2cc3c(N)cccc3nc2-1 (configuration not stated)	EWS-Fli block 55, LGR2 antag 98 (no result: PglD inh, UUG fidelity)
CCc1ccccc1NCC(=O)Nc1ccccc1C(=O)OC	none (no result: PglD inh, miR-122 sensor, UUG fidelity, LGR2 antag)
COc1cccc(C(=O)NC(=S)N2CCN(c3ccc(C(F)(F)F)cc3[N+](=O)[O-])CC2)c1	EWS-Fli block 64 (no result: F508del corr)
CC(C)Oc1cccc(C(=O)NC(=S)N2CCN(c3ccc(C(F)(F)F)cc3[N+](=O)[O-])CC2)c1	none (no result: EWS-Fli block, F508del corr, LGR2 antag)
COc1cccc(C(=O)Nc2cc([N+](=O)[O-])ccc2N2CCN(C)CC2)c1	miR-122 sensor 292
CN1CCN(c2ncnc3c2ncn3[C@H]2CN(Cc3cccs3)C[C@@H](CO)O2)CC1	none
O=C(COC(=O)Cc1cccc(C(F)(F)F)c1)NCc1ccco1	none
COc1ccc(-c2ccc3c(c2)[C@@H]2[C@@H](CCN2S(=O)(=O)c2ccccc2C)[C@@H](CO)N3)cc1	none
CCc1nc(N)nc(N)c1-c1ccc(Cl)c([N+](=O)[O-])c1	F508del corr 9.1 (no result: PglD inh, miR-122 sensor, UUG fidelity)
COC(=O)[C@@H](NC(=O)c1ccccc1OC1CCN(S(C)(=O)=O)CC1)C(C)C	none
COc1ccc(/C=N/NC(=O)c2c(C)nc3ccc(Br)cn23)cc1OC	F508del corr 10 (no result: PglD inh, miR-122 sensor, UUG fidelity)
O=C1C=C(O)C(n2cncn2)C(c2cc(F)ccc2F)C1 (configuration not stated)	none (no result: PglD inh, miR-122 sensor, UUG fidelity)
COc1cc(NC(=O)Cn2cnc(S(=O)(=O)N3CCCCC3)c2)cc(OC)c1OC	none
COc1cc2oc(=O)cc(-c3cccc(-c4cccc(C)c4)c3)c2c(OC)c1OC	none
Cc1ccc(-c2cccc(-c3cc(=O)oc4ccc(C(C)(C)C)cc34)c2)cc1	F508del corr 8.7
Cc1ccc(-c2ccc3c(c2)O[C@@H](CN(C)Cc2ccccn2)[C@@H](C)CN([C@@H](C)CO)S3(=O)=O)cc1	none
Cc1ccc(-c2ccc3c(c2)O[C@H](CN(C)Cc2ccccn2)[C@@H](C)CN([C@@H](C)CO)S3(=O)=O)cc1	EWS-Fli block 58, F508del corr 12
C[C@@H]1CN([C@H](C)CO)S(=O)(=O)c2ccc(-c3ccccc3F)cc2O[C@H]1CN(C)Cc1ccncc1	EWS-Fli block 60
Cc1ccc(-c2ccc3c(c2)O[C@H](CN(C)Cc2ccccn2)[C@@H](C)CN([C@H](C)CO)S3(=O)=O)cc1	EWS-Fli block 63, F508del corr 16
CN1CCN(C2=C(Cl)C(=O)c3ccccc3C2=O)CC1	LGR2 antag 72 (no result: PglD inh, miR-122 sensor, UUG fidelity)
O=C1C(Cl)=C(N2CCC(C(=O)O)CC2)C(=O)c2ccccc21	none (no result: PglD inh, EWS-Fli block, UUG fidelity, F508del corr, LGR2 antag)
COc1ccccc1N1CCN(C(=O)c2ccc(Cn3c(=O)[nH]c4ccsc4c3=O)cc2)CC1	miR-122 sensor 118
NC(=O)c1ccc(Sc2nnc(-c3cccs3)n2CC2CCCO2)c([N+](=O)[O-])c1 (configuration not stated)	EWS-Fli block 75 (no result: F508del corr)
O=C(CSc1nnc(-c2cccs2)n1CC1CCCO1)N1CCCC1 (configuration not stated)	none
CCN(CC)CCCNC(=S)N1CCN(c2nc(-c3ccc(F)cc3)cs2)CC1	EWS-Fli block 61
COc1ccc(NC(=O)Nc2ccc3c(c2)C(=O)N([C@@H](C)CO)C[C@H](C)[C@@H](CN(C)C(=O)CCCN(C)C)OCCCC[C@H](C)O3)cc1	none
COc1ccc(S(=O)(=O)N(C)C[C@@H]2OCCCC[C@H](C)Oc3ccc(NS(=O)(=O)c4ccc(Cl)cc4)cc3C(=O)N([C@@H](C)CO)C[C@@H]2C)cc1	LGR2 antag inconclusive (no result: PglD inh, miR-122 sensor, UUG fidelity)
O=C(O)c1cccc(COc2ccccc2Cl)c1	EWS-Fli block 86, LGR2 antag 101
O=C(O)c1ccc(COc2ccccc2Cl)cc1	none (no result: EWS-Fli block, miR-122 sensor, F508del corr)
O=C1NC(=O)/C(=C\c2ccc(OCc3cccc(C(=O)O)c3)c(Cl)c2)N1	LGR2 antag 83
Cc1cccc(N2CCN(C(=O)c3c(-c4ccccc4)noc3C)CC2)c1C	F508del corr 15
Cc1onc(-c2ccccc2Cl)c1C(=O)N1CCN(c2cccc(Cl)c2)CC1	EWS-Fli block 54, F508del corr 8.1
Cc1ccc(C(=O)NCC(=O)NCCCc2ccccc2)s1	none
CCN(CCO)c1ccc(N=Nc2cc(C)[nH]n2)cc1	EWS-Fli block 64, LGR2 antag 92 (no result: PglD inh, miR-122 sensor, UUG fidelity)
CN(C)c1ccc(/C=C2\SC(=O)N(CCc3nnc(N)s3)C2=O)cc1	EWS-Fli block 82, LGR2 antag 89 (no result: PglD inh, miR-122 sensor, UUG fidelity)
COCCNC(=O)C1CCCN(C(=O)c2cc(-c3cccs3)oc2C)CC1 (configuration not stated)	F508del corr 13 (no result: miR-122 sensor)
CCN(CC)C1Oc2cc3c(cc2C(c2cc(OC)c(OC)c(OC)c2)C1C)OCO3 (configuration not stated)	EWS-Fli block 64 (no result: PglD inh, UUG fidelity)
